Target: NTR1 (Homo sapiens, UniProt P30989)
Experiment: NTR1 high-content imaging (HCS) dose response, NTR1-U2OS cells
Format: cell-based
Parameters: host or cells: U2OS osteosarcoma
Conditions: n = 4 unless otherwise noted; read-out: HCS NTR1 Potency Emax
Description: The cell lines utilized in the high-content imaging assays, which include the NTR1-, NTR2-, and GPR35-U2OS osteosarcomas, were obtained from the laboratory of Dr. Lawrence Barak at the Duke University Medical Center. The media used in the culture of the cell lines, as well as the assays themselves, consisted of Minimum Essential Medium (15-010-CM) and L-glutamine (25-005-CL) from Cellgro/Mediatech (Manassas, Va.), fetal bovine serum (SH30396.03) from Hyclone (Logan, Utah), penicillin-streptomycin solution (PS-20) from Omega Scientific in Tarzana, Calif., G418 (ant-gn-1) from Invivogen (San Diego, Calif.), and zeocin (R250-01) from Invitrogen (Carlsbad, Calif.). Cell lines were cultured in T225 tissue culture flasks (431082) supplied by Corning (Corning, N.Y.). Additional reagents employed include Dulbecco's Phosphate-Buffered Saline (DPBS) (21-031CV) from Cellgro/Mediatech, Trypsin-EDTA 0.05% (25300) from Invitrogen, paraformaldehyde (30528954) from Acros Organics (Geel, Belgium), Hoechst 33342 (H3570) from Invitrogen. The high-content assays were run in 1536-well plates (29326) supplied by Aurora Biotechnology (Poway, Calif.) and utilized aluminum plate seals (T592100) from E&K Scientific (Santa Clara, Calif.).
The neurotensin 1 peptide (N6383) from Sigma-Aldrich (St. Louis, Mo.) was used as a positive control in the NTR1 primary HCS assay. […]

The chains behind the UniProt entries cited, without tags or fusion partners.
UniProt P30989, whole entry, species assumed: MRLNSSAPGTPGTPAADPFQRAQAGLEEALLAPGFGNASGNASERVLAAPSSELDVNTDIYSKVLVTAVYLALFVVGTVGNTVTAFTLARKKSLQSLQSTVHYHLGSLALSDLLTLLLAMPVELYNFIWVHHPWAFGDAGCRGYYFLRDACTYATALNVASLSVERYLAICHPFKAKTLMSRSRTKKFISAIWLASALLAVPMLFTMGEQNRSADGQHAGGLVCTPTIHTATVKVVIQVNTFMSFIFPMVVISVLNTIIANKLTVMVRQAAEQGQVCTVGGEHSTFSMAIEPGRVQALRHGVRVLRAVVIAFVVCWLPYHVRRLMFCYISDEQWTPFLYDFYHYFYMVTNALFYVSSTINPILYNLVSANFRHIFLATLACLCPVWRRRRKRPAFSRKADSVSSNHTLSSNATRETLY

COc1cc2nc(C3CC3)nc(N3CCN(Cc4ccc(C)cc4)CC3)c2cc1OC [Compound 342, 2-cyclopropyl-6,7-dimethoxy-4-(4-(4-methylbenzyl)piperazin-1-yl)quinazoline]
Emax: 100%
